This note sets out measurements from ChEMBL document CHEMBL2169863, “Discovery, structure-activity relationship, and biological evaluation of noninhibitory small molecule chaperones of glucocerebrosidase” (J Med Chem, 2012).

Amino acid sequences for entries named in this document (tags omitted). Residues count along the entry.
UniProt P04062, 40-536 N409S limits assumed: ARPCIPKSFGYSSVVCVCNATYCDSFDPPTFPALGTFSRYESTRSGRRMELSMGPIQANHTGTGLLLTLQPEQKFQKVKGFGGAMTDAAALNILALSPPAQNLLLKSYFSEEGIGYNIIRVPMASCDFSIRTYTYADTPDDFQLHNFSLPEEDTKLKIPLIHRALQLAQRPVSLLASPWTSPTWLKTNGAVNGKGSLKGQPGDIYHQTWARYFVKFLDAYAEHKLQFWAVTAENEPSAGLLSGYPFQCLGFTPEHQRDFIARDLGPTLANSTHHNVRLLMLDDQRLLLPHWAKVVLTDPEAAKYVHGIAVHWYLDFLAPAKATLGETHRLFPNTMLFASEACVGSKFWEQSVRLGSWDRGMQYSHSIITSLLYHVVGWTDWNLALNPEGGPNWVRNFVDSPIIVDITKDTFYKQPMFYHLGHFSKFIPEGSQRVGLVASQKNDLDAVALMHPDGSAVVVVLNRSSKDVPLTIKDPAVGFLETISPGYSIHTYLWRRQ

What is called IC50 is the concentration that inhibits the measured activity by half. Lower therefore signals inhibition by little substance.

The target in experiment [1] is T1, Lysosomal acid glucosylceramidase (Homo sapiens, UniProt P04062).
T1 sequence (P04062 whole entry): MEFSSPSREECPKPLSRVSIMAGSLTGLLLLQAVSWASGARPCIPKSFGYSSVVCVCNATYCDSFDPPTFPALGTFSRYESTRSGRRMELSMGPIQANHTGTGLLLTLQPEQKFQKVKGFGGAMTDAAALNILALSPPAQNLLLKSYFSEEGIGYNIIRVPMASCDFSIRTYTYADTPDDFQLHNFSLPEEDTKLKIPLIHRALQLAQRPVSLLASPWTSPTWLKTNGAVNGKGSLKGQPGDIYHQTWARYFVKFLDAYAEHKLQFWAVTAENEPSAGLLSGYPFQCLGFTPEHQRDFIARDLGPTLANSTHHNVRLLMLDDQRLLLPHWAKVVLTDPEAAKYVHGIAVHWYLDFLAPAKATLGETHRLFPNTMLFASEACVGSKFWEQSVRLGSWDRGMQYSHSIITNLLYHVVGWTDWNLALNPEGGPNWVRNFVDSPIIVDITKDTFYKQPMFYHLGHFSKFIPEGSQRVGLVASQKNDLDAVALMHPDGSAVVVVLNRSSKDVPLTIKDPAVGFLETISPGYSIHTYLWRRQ
Nature of the experiment: Inhibition of wild type glucocerebrosidase in human spleen homogenate using 4-methylumbellifereno-Glc as substrate incubated for 5 mins prior to substrate addition measured after 20 mins by fluorimetric analysis. It counts as tissue-based.

Experiment [2] addresses Lysosomal acid glucosylceramidase (Homo sapiens, UniProt P04062, N409S). Nature of the experiment: Inhibition of glucocerebrosidase N370S mutant using 4-methylumbellifereno-Glc as substrate incubated for 5 mins prior to substrate addition measured after 20 mins by fluorimetric analysis.
The target in experiment [3] is T1, Lysosomal acid glucosylceramidase. Nature of the experiment: Inhibition of wild type glucocerebrosidase using 4-methylumbellifereno-Glc as substrate incubated for 5 mins prior to substrate addition measured after 20 mins by fluorimetric analysis.

On to `Cc1cc(N2CCOCC2)nc2ccc(NC(=O)C3CCCCC3)cc12`, for which the IC50 came out at 2.2 µM in experiment [1], 560 nM in experiment [2] and 30 nM in experiment [3].
For `CCc1nnc(NC(=O)c2ccc(NS(=O)(=O)c3ccccc3)cc2)s1` the same measures were 3.2 µM, 1600 nM and 100 nM.
In the same order, the values of `COc1ccc(Cl)cc1Nc1nc(NCCO)nc(N2CCCC2)n1` are 7.9 µM, 11000 nM and 400 nM.
